This assay concerns CT26 (Mouse colon adenocarcinoma) xenograft. Description: CT26 tumor model in immunocompetent mice. The settings on record: BALB/c mice with CT26 tumors; […] IT virus injections.

With `O=C(/C=C\n1cnc(-c2cc(C(F)(F)F)cc(C(F)(F)F)c2)n1)NNc1cnccn1` [selinexor], the survival result is “enhanced survival”.

These data come from patent US20250387443A1, “ENHANCING ONCOLYTIC V[…] A COMBINATION OF NUCLEAR EXPORT INHIBITOR AND MYXOMA VIRUS […] DEATH PATHWAYS” (Arizona Board of Regents on behalf of Arizona State …, priority 2024, published 2025).
